Literature values as cited in patent US7368433B2, “Peptides and methods for the control of obesity” (University of Florida Research Foundation, Inc., priority 2002, dated 2008).

Amino acid sequences for entries named in this document (tags omitted).
UniProt P32245, whole entry: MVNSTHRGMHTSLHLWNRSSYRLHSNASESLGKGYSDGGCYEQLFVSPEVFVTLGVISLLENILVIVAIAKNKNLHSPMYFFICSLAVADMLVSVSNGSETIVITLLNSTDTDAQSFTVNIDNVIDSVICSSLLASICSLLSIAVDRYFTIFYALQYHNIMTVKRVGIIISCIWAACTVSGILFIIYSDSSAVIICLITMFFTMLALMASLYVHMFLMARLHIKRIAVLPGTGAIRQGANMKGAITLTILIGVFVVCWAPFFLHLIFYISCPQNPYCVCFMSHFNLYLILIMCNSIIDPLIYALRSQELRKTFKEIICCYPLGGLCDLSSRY

Molecular target: T1, human MC4R (Homo sapiens, UniProt P32245)
T1 construct: expressed in transfected cells; host or cells: HEK-293
Details: literature (Yang et al 2000; Danho et al); read-out: agonist activity at the human MC4 receptor; cited from earlier work

## CC(=O)N[C@@H](Cc1cnc[nH]1)C(=O)N[C@H](Cc1ccccc1)C(=O)N[C@@H](CCCN=C(N)N)C(=O)N[C@@H](Cc1c[nH]c2ccccc12)C(N)=O [JRH279-31, Ac-His-DPhe-Arg-Trp-NH2]
  EC50: 8 to 10 nM
